{"source": "patent US4022791A", "about": "(priority 1975, dated 1977)", "details_in_all_cases": "100 mg./kg. IP", "key": {"mice [1]": {"system": "mice", "assay": "Mouse Tail Pinch", "type": "in vivo"}, "mice [2]": {"system": "mice", "assay": "Hot Plate Test", "type": "in vivo, mouse"}, "mice [3]": {"system": "mice", "assay": "Tail Flick Test", "type": "in vivo, mouse"}}}
{"compound": "COc1ccc(Cl)c2c1CCC(CN1CCC3(CC1)C(=O)N(C)CN3c1ccccc1)=C2", "values": [{"measurement": "Tail Pinch .5 hr (percentage of mice showing analgesia)", "setting": "mice [1]; 0.5 hour after administration", "result": 0, "unit": "%"}, {"measurement": "Tail Pinch 2 hr (percentage of mice showing analgesia)", "setting": "mice [1]; 2.0 hours after administration", "result": 0, "unit": "%"}, {"measurement": "Hot Plate .5 hr (percentage of mice showing analgesia)", "setting": "mice [2]; 0.5 hour after administration", "result": 20, "unit": "%"}, {"measurement": "Hot Plate 2 hr (percentage of mice showing analgesia)", "setting": "mice [2]; 2.0 hours after administration", "result": 0, "unit": "%"}, {"measurement": "Tail Flick .5 hr (percentage of analgesia response)", "setting": "mice [3]; 0.5 hour after administration", "result": 0, "unit": "%"}, {"measurement": "Tail Flick 2 hr (percentage of analgesia response)", "setting": "mice [3]; 2.0 hours after administration", "result": 0, "unit": "%"}]}
